The list shows a part of the results, in another mix than the full data. Results filed as inconclusive are left out. Calls of active or inactive are those of the source. Calls come from the whole dose curve; as a rule, active = well fitted inhibition curve with a large enough effect; inconclusive = small, poorly fitted or top-dose-only effect; inactive = no such curve, though single readings can be large or run the other way.
target: DNA repair nuclease/redox regulator APEX1 (Homo sapiens) (UniProt P27695); experiment: qHTS Assay for Inhibitors of the Human Apurinic/apyrimidinic Endonuclease 1 (APE1); settings: recombinant APE1, TAMRA/BHQ-2 abasic DNA cleavage fluorescence; at 65.8 µM (top of the series);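 note: plate controls were vehicle for no effect and reference inhibitor for full effect; nearly all actives have a fitted effect of over 55% in size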

Protein sequences, listed by entry. Tags and fused reporters are not part of them.
UniProt P27695, whole entry: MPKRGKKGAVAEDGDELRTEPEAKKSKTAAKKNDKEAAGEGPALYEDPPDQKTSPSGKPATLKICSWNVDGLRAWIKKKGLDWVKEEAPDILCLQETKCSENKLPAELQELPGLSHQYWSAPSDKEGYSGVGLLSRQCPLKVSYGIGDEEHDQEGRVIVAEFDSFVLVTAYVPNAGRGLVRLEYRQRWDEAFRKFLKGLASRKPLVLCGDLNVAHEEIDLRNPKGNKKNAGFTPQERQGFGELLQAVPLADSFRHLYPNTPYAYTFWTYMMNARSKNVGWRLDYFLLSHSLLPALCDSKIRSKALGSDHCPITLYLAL

| SMILES | activity change, negative = inhibition |
| --- | --- |
| Cc1nc2ccc3ccccc3c2s1.O=[N+]([O-])c1cc([N+](=O)[O-])c(O)c([N+](=O)[O-])c1 | inactive: -2.66% |
| CC(C)N(CCCl)C(C)C | inactive: -1.71% |
| O=[N+]([O-])c1cc([N+](=O)[O-])c(-n2nnc3ccccc32)c([N+](=O)[O-])c1 | inactive: 1.09% |
| CP(=O)(Nc1ccc(SC(F)(F)F)cc1)Oc1ccccc1 (stereo not given) | inactive: 14.1% |
| CCCOc1ccc(NP(C)(=O)Oc2ccc(Cl)cc2)cc1 (stereo not given) | inactive: -4.48% |
| OCCN(CCO)CCO | inactive: -1.94% |
| COc1ccccc1OP(C)(=O)Nc1c(C)cccc1C (stereo not given) | inactive: -1.31% |
| CN1CCCCC1COC(=O)C1(O)c2ccccc2CCc2ccccc21 (stereo not given) | inactive: 2.17% |
| O=[N+]([O-])c1cc([N+](=O)[O-])c(Nc2nnnn2CCO)c([N+](=O)[O-])c1 | inactive: -0.775% |
| CC1=NCCc2c1[nH]c1ccccc21.O=[N+]([O-])c1cc([N+](=O)[O-])c(O)c([N+](=O)[O-])c1 | inactive: -1.62% |
| Cc1ccc([N+](=O)[O-])cc1[N+](=O)[O-] | inactive: 3.73% |
| O=[N+]([O-])OCC(CO[N+](=O)[O-])(CO[N+](=O)[O-])CO[N+](=O)[O-] | inactive: 4.97% |
| O=[N+]([O-])c1cccc([N+](=O)[O-])c1 | inactive: -0.967% |
| CP(=O)(Nc1cccc(Br)c1)Oc1ccccc1 (stereo not given) | inactive: 4.8% |
| Cc1cc(C)cc(OP(C)(=O)Nc2ccccn2)c1 (stereo not given) | inactive: 2.29% |
| CCOC(=O)c1ccc(NP(C)(=O)Oc2cc(C)cc(C)c2)cc1 (stereo not given) | inactive: 17.6% |
| Cc1cc(C)cc(OP(C)(=O)Nc2ccc(C)cc2C)c1 (stereo not given) | inactive: 5.4% |
| COc1ccccc1OP(C)(=O)Nc1cccc(Br)c1 (stereo not given) | inactive: -4.13% |
| O=[N+]([O-])[O-].[NH4+] | inactive: -1.15% |
| CCN(CC)CCCOC(=O)C(O)(c1ccccc1)c1ccccc1 | inactive: 3.46% |
| Cc1cc(C)cc(OP(C)(N)=O)c1 (stereo not given) | inactive: -2.32% |
| COc1ccc(OP(C)(=O)Nc2cccc(F)c2)cc1 (stereo not given) | inactive: -0.139% |
| COc1ccccc1OP(C)(=O)Nc1cc(Cl)ccc1C (stereo not given) | inactive: -4.6% |

| SMILES | activity change, negative = inhibition |
| --- | --- |
| Cc1ccc(NP(C)(=O)Oc2ccccc2)c(C)c1 (stereo not given) | inactive: -10.4% |
| COc1ccccc1OP(C)(=O)Nc1ccc(C)cc1 (stereo not given) | inactive: -6.83% |
| CCOC(=O)c1ccc(NP(C)(=O)Oc2ccccc2)cc1 (stereo not given) | inactive: 6.16% |
| O=[N+]([O-])c1ccc2c(c1)C=Nc1ccccc1O2 | inactive: 10.1% |
| O=C(O)C(O)(c1ccccc1)c1ccccc1 | inactive: -3.1% |
| Cc1cccc(C)c1OP(C)(N)=O (stereo not given) | inactive: 1.06% |
| CC(C)(C)c1ccc(OP(C)(=O)Nc2ccc(SC(F)(F)F)cc2)cc1 (stereo not given) | inactive: 12.3% |
| O=[N+]([O-])c1cc([N+](=O)[O-])c(Nc2cccnc2)c([N+](=O)[O-])c1 | inactive: 23.4% |
| CP(=O)(Nc1ccccc1Br)Oc1ccccc1 (stereo not given) | inactive: -0.0765% |
| COc1ccccc1OP(C)(=O)Nc1ccccc1 (stereo not given) | inactive: -0.599% |
| CP(=S)(Nn1cnnc1)Oc1ccccc1 (stereo not given) | inactive: 4.8% |
| CP(=O)(Nc1ccccn1)Oc1ccc(Cl)cc1 (stereo not given) | inactive: 5.63% |
| CCOC(=O)c1ccc(NP(C)(=O)Oc2ccc(OC)cc2)cc1 (stereo not given) | inactive: 0.929% |
| CCOP(C)(=S)SCC(=O)NC(C)C(=O)O (stereo not given) | inactive: 0.149% |
| Cc1cc(C)cc(OP(C)(=O)Nc2ccc(SC(F)(F)F)cc2)c1 (stereo not given) | inactive: -3.92% |
| CCc1ccc(OP(C)(=O)N2CCN(c3ccc([N+](=O)[O-])cc3)CC2)cc1 (stereo not given) | inactive: 1.33% |
| CP(=O)(NC(=O)Nc1ccccc1)Oc1ccccc1 (stereo not given) | inactive: 31.4% |
| CP(=O)(Oc1ccccc1)OC(c1ccccc1)C(F)(F)F (stereo not given) | inactive: -0.896% |
| Cc1cccc(C)c1OP(C)(=O)Nc1ccc(SC(F)(F)F)cc1 (stereo not given) | inactive: -7.2% |
| CP(=O)(Nc1ccc(SC(F)(F)F)cc1)Oc1ccc(Cl)cc1 (stereo not given) | inactive: -3.25% |
| CN(C)C(=O)c1c([N+](=O)[O-])cc([N+](=O)[O-])cc1[N+](=O)[O-] | inactive: 12.7% |
| CC(C)(C)c1ccc(OP(C)(=O)O)cc1 | inactive: -4.04% |
| COc1ccccc1OP(C)(=O)Nc1ccccc1Br (stereo not given) | inactive: -12% |

| SMILES | activity change, negative = inhibition |
| --- | --- |
| CP(=O)(Nc1ccc(Cl)cc1)Oc1ccc(F)cc1 (stereo not given) | inactive: 3.75% |
| OCCSCCO | inactive: 14.7% |
| COc1ccccc1OP(C)(=O)Nc1c(C)n(C)n(-c2ccccc2)c1=O (stereo not given) | inactive: 2.62% |
| CCc1ccc(OP(C)(=O)Nc2cccnc2)cc1 (stereo not given) | inactive: 21.7% |
| CP(=O)(Oc1ccccc1)N1CCOC1=O (stereo not given) | inactive: -2.41% |
| COc1ccc(OP(C)(=O)Nc2ccc(Br)cc2)cc1 (stereo not given) | inactive: 2.2% |
| CCN(CC)CC(O)COC(=O)C(O)(c1ccccc1)C1CCCCC1 (stereo not given) | inactive: -2.09% |
| CCOC(=O)c1ccc(NP(C)(=O)Oc2ccc(Cl)cc2)cc1 (stereo not given) | inactive: 1.25% |
| CP(=O)(OC12CC3CC(CC(C3)C1)C2)OC12CC3CC(CC(C3)C1)C2 | inactive: -1.1% |
| CP(=O)(OCCOc1ccccc1)OCCOc1ccccc1 | inactive: -4.82% |
| CP(=O)(Nc1ccc(Cl)cc1Cl)Oc1ccccc1 (stereo not given) | inactive: -2.38% |
| Cc1nc2ccc3ccccc3c2o1.O=[N+]([O-])c1cc([N+](=O)[O-])c(O)c([N+](=O)[O-])c1 | inactive: -3.06% |
| COc1ccccc1OP(C)(=O)Nc1ccc(C)c(C)c1 (stereo not given) | inactive: 12.2% |
| COc1ccc(OP(C)(=O)Nc2ccccc2Br)cc1 (stereo not given) | inactive: -0.488% |
| Cc1cc(C)cc(OP(C)(=O)Nc2cccc(C(F)(F)F)c2)c1 (stereo not given) | inactive: -4.62% |
| COc1ccccc1OP(C)(=O)Nc1ccc(C)cc1C (stereo not given) | inactive: -1.64% |
| CP(=O)(Nc1ccccn1)Oc1ccccc1 (stereo not given) | inactive: -0.131% |
| CCc1ccc(OP(C)(=O)O)cc1 | inactive: -16.2% |
| O=[N+]([O-])c1cc([N+](=O)[O-])c(Nc2ccccn2)c([N+](=O)[O-])c1 | inactive: -13.8% |
| Cc1c(NP(C)(=O)Oc2ccc(C(C)C)cc2)c(=O)n(-c2ccccc2)n1C (stereo not given) | inactive: -11.4% |
| COc1ccc(OP(C)(=O)Nc2ccccn2)cc1 (stereo not given) | inactive: 4.28% |
| CN(C)CCOC(=O)C(O)(c1ccccc1)C1CCCC1 (stereo not given) | inactive: 12.3% |
| COc1ccccc1OP(C)(=O)Nc1ccc(Br)cc1 (stereo not given) | inactive: -0.052% |

| SMILES | activity change, negative = inhibition |
| --- | --- |
| O=C(OCCN1CCN(CCOCc2ccccc2)CC1)C(O)(c1ccccc1)c1ccccc1 | inactive: 5.53% |
| CP(=O)(Nc1ccccc1F)Oc1ccccc1 (stereo not given) | inactive: -8.38% |
| CC(C)c1ccc(OP(C)(=O)Nc2ccc(SC(F)(F)F)cc2)cc1 (stereo not given) | inactive: 1.3% |
| CP(=O)(Nc1ccccc1)Oc1ccc(F)cc1 (stereo not given) | inactive: -2.92% |
| CCN(CC)CCCOC(=O)C(O)(c1ccccc1)C1CCCCC1 (stereo not given) | inactive: -0.999% |
| CCOC(=O)c1ccc(NP(C)(=O)Oc2ccc(F)cc2)cc1 (stereo not given) | inactive: 20.2% |
| COc1ccc(OP(C)(=O)Nc2ccc(SC(F)(F)F)cc2)cc1 (stereo not given) | inactive: -6.89% |
| Cc1cccc([N+](=O)[O-])c1[N+](=O)[O-] | inactive: 2.85% |
| CCC(C)(OO)OOC(C)(CC)OO (stereo not given) | inactive: -1.01% |
| O=[N+]([O-])c1ccc(OP2(=O)COCCO2)cc1 (stereo not given) | inactive: 0.844% |
| Cc1cc(-c2cccc3ccccc23)c(C)cn1.O=[N+]([O-])c1cc([N+](=O)[O-])c(O)c([N+](=O)[O-])c1 | inactive: 12.8% |
| Cc1ccc([N+](=O)[O-])c([N+](=O)[O-])c1 | inactive: 3.48% |
| Cc1c([N+](=O)[O-])cccc1[N+](=O)[O-] | inactive: 4.76% |
| CN(C)CCOC(=O)C(O)(c1ccccc1)C1CCCCC1 (stereo not given) | inactive: -1.7% |
| COc1ccc(OP(C)(=O)Nc2cccc(Br)c2)cc1 (stereo not given) | inactive: -4.82% |
| [NH4+].[O-][Cl+3]([O-])([O-])[O-] | inactive: 12.3% |
| Cc1ccccc1NP(C)(=O)Nc1ccccc1C | inactive: 2.78% |
| CP(=O)(Nc1ccc2c(c1)OCCO2)Oc1ccccc1 (stereo not given) | inactive: 2.18% |
| CCOP(C)(=S)SCC(=O)NC(C)(CC)C(=O)O (stereo not given) | inactive: 3.76% |
| CCOP(=O)(CC)OCC | inactive: -0.223% |
| CP(=O)(Nc1ccc(SC(F)(F)F)cc1)Oc1ccc(F)cc1 (stereo not given) | inactive: 1.8% |

From PubChem BioAssay AID2517 (National Center for Advancing Translational Sciences (NCATS), 2010)
